{"source": "patent US20050272055A1", "about": "(priority 2000, published 2005)", "test_system": "piglets", "set-up": "species or system Yorkshire piglets", "conditions": "in vivo", "data": [{"smiles": "CC(=O)CCCCn1c(=O)c2c(ncn2C)n(C)c1=O", "note": "[Pentoxifylline]", "values": [{"measurement": "effect on lethal shock", "result": "no effect"}]}]}
